# GSIS activator – GLuc luminescence reporter in INS-1E cells, primary screen for activators of glucose-dependent secretion of insulin | activation, % at 16.6 µM | INS-1E GLuc reporter insulin secretion, 2-3 h | 0.61% of 370,000 active;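 active = lowest replicate activation of at least 40%, so every replicate reaches that level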
# UUG fidelity – modulators of yeast start codon fidelity, primary screen, whole organism, S. cerevisiae, single point, plate reader | activity score, % at 18.7 µM | 350,000 tested, 0.13% active | S. cerevisiae UUG-firefly luciferase reporter, luminescence/redox ratio;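 active means replicate mean at a twofold rise or more, about +100% in these data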;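 further: firefly luciferase made from a UUG start codon reports start codon fidelity; reporter light over untreated wells divided by growth signal over untreated wells; some hits fall short of that in this replicate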
# SR-BI DiI-HDL act – activators of SR-BI mediated DiI-HDL uptake, primary screen, ldlA[mSR-BI] CHO cells, DiI fluorescence | 3 h; 100 = double the neutral-control signal | activation, % at 12.5 µM | 0.096% of 320,000 active;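 active = mean replicate activation of at least 60% and every replicate at or above 60%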
#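 material = CHO ldlA[mSR-BI] cells | medium = Ham's F12 with 0.5% BSA, HEPES 25 mM, pH 7.4 | reagent = fluorescent DiI-HDL, 10 µg/mL final | compound dosing = single-point compound dose | incubation = 3 h, 37 °C | measured by = bottom-read fluorescence, 550/595 nm | measure = HDL uptake via cellular fluorescence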
# SR-BI HDL uptake – inhibitors of SR-BI mediated HDL lipid uptake, primary screen, ldlA[mSR-BI] cells, fluorescence, single point; Scavenger receptor class B member 1 (Mus musculus), Q61009; ldlA[mSR-BI] CHO cells, DiI-HDL uptake fluorescence, 3 h; inhibition, % at 12.5 µM; 0.96% of 320,000 active;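 active = mean replicate inhibition of at least 70% and a set share of replicates each scoring 70 or more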
# Numbers stand for hits; - = inactive; . = not tested or not shown. Sampled rows, rich in hits. Any-hit rate of the full collection: about 1.3%.
SMILES,GSIS activator,UUG fidelity,SR-BI DiI-HDL act,SR-BI HDL uptake
CCCCNC(=O)c1cc2c(-c3ccc(Cl)cc3)nn(C)c2s1,-,-,-,-
COCCCNC(=O)c1cc2c(-c3ccc(Cl)cc3)nn(C)c2s1,-,-,-,76.5
CC(C)NC(=O)c1cc2c(-c3ccc(Cl)cc3)nn(C)c2s1,-,-,-,-
CCN1CCCC1CNC(=O)c1cc2c(-c3ccc(Cl)cc3)nn(C)c2s1 (stereo unspecified),.,-,-,-
Cc1ccc(CNC(=O)c2cc3c(-c4ccc(Cl)cc4)nn(C)c3s2)o1,-,-,-,76.4
Cn1nc(-c2ccc(Cl)cc2)c2cc(C(=O)NCCCN3CCCC3)sc21,-,-,-,76.4
COCCNC(=O)c1cc2c(-c3ccc(Cl)cc3)nn(C)c2s1,-,-,-,87.5
O=C(c1ccncc1)N1CC2(C1)[C@H](c1ccccc1)[C@@H](CO)N2CC1CCCC1,-,.,.,.
C[C@H]1CN([C@@H](C)CO)C(=O)c2cccc(N(C)C)c2O[C@@H]1CN(C)Cc1ccc2c(c1)OCO2,-,-,.,.
CCC(=O)N(C)C[C@H]1Oc2cc(/C=C/c3ccccc3)ccc2S(=O)(=O)N([C@@H](C)CO)C[C@@H]1C,-,-,.,.
CC(C)(C)C1CCc2c(sc(NC(=O)C3CCCO3)c2C(N)=O)C1 (stereo unspecified),.,-,-,78.4
O=c1cc(Cl)[nH]c(=O)n1Cc1ccccc1,47.5,-,.,.
O=c1cc(Cl)[nH]c(=O)n1Cc1ccc(F)cc1,-,-,-,-
CCC(C)Sc1ccc(-c2nc3cnccn3c2NC2CCCCC2)cc1 (stereo unspecified),-,-,-,-
CCC(C)Sc1ccc(-c2nc3cc(C)ccn3c2NC2CCCCC2)cc1 (stereo unspecified),-,-,-,80.5
COc1ccccc1-c1cnc2c(c1)C(=O)N([C@H](C)CO)C[C@H](C)[C@H](CN(C)Cc1ccc(F)cc1)O2,-,-,.,.
CCOc1ccc2nc(NCCNC(=O)Nc3cccc(C)c3)c(C#N)cc2c1,320.0,-,-,-
CCOc1ccc2nc(NCCNC(=S)NCCCN(C)C)c(C#N)cc2c1,-,.,-,-
CCOc1ccc2nc(NCCNC(=O)Nc3ccccc3)c(C#N)cc2c1,200.2,-,-,-
CNC[C@@H]1OCCCC[C@@H](C)Oc2ccc(NC(=O)c3ccncc3)cc2C(=O)N([C@H](C)CO)C[C@H]1C,.,-,.,.
C[C@@H]1CCCCO[C@H](CN(C)S(C)(=O)=O)[C@@H](C)CN([C@@H](C)CO)C(=O)c2cc(NC(=O)C3CCCCC3)ccc2O1,-,-,.,.
Oc1c(Cl)cc(Cl)cc1/C=N/NC(=S)NC1CC2C=CC1C2 (stereo unspecified),-,-,-,98.2
Oc1ccccc1C=NNC(=S)NC1CC2C=CC1C2 (stereo unspecified),.,-,.,.
Cc1ccc2sc(NC(=O)c3cccc(N4C(=O)CCC4=O)c3)nc2c1C,-,-,-,94.4
Cc1ccc2nc(NC(=O)c3ccc(N4C(=O)CCC4=O)cc3)sc2c1,-,.,-,77.2
SMILES,GSIS activator,UUG fidelity,SR-BI DiI-HDL act,SR-BI HDL uptake
O=C(Nc1nc(-c2ccc(F)cc2)cs1)c1cccc(N2C(=O)CCC2=O)c1,-,-,-,81.3
C[C@@H]1CN([C@@H](C)CO)C(=O)c2cc(C#CC3CC3)cnc2O[C@@H]1CN(C)C(=O)c1ccncc1,-,.,.,.
COc1ccc(-c2ccc3c(c2)[C@@H]2[C@@H](CCN2C(=O)c2ccc4c(c2)OCO4)[C@H](CO)N3C)cc1,-,-,.,.
CNC[C@H]1OCCCC[C@@H](C)Oc2ccc(NC(=O)Nc3ccc(OC)cc3)cc2C(=O)N([C@H](C)CO)C[C@H]1C,-,.,.,.
C/C=C/c1cnc2c(c1)C(=O)N([C@H](C)CO)C[C@H](C)[C@H](CN(C)Cc1cccc(C(=O)O)c1)O2,-,.,.,.
O=C(COc1ccc(/C=N/NS(=O)(=O)c2ccccc2)cc1)NCc1ccccc1,.,-,-,-
O=C(COc1ccc(/C=N/NS(=O)(=O)c2ccccc2)cc1)Nc1cccc(Cl)c1,.,-,-,74.7
CCCC#Cc1ccc2c(c1)O[C@H](CN(C)C(=O)C1CC1)[C@H](C)CN([C@H](C)CO)S2(=O)=O,-,-,.,.
Cc1cccc(NS(=O)(=O)c2ccc(-c3ccc(=O)[nH]n3)o2)c1,-,-,-,-
O=c1ccc(-c2ccc(S(=O)(=O)Nc3cccc([N+](=O)[O-])c3)s2)n[nH]1,77.4,-,-,-
O=C(C[C@@H]1CC[C@H](NC(=O)C2CCC2)[C@H](CO)O1)NC1CCCCC1,-,-,.,.
C[C@@H]1CN([C@@H](C)CO)C(=O)c2cccc(NC(=O)Nc3ccc(C(F)(F)F)cc3)c2O[C@H]1CN(C)Cc1ccc(Cl)c(Cl)c1,44.3,-,.,.
C[C@H](CO)N1C[C@H](C)[C@@H](CN(C)C(=O)Nc2ccc(C(F)(F)F)cc2)Oc2c(NC(=O)CCC(F)(F)F)cccc2C1=O,-,-,-,76.4
Cc1noc(C)c1NC(=O)Nc1cccc2c1O[C@H](CN(C)C(=O)Nc1ccc(C(F)(F)F)cc1)[C@@H](C)CN([C@H](C)CO)C2=O,-,-,-,79.5
C[C@@H]1CN([C@@H](C)CO)C(=O)Cc2cc(NC(=O)Nc3ccc(F)cc3)ccc2O[C@@H]1CN(C)Cc1ccc(Cl)c(Cl)c1,-,-,92.6,-
Cc1noc(C)c1NC(=O)Nc1cccc2c1O[C@@H](CN(C)C(=O)Nc1ccc(C(F)(F)F)cc1)[C@@H](C)CN([C@H](C)CO)C2=O,-,-,.,.
C[C@@H]1CN([C@H](C)CO)C(=O)c2cccc(NC(=O)Nc3ccc(C(F)(F)F)cc3)c2O[C@@H]1CN(C)C(=O)Nc1ccc(C(F)(F)F)cc1,-,-,.,.
C[C@@H]1CN([C@H](C)CO)C(=O)c2cc(NS(=O)(=O)c3ccc(Cl)cc3)ccc2O[C@@H]1CN(C)Cc1ccncc1,-,-,.,.
COc1ccc2c3c(n(C)c2c1)[C@@H](CO)N(C(=O)c1ccc(F)cc1)CC31CCN(CC2CCOCC2)CC1,-,.,.,.
CC(C)C#Cc1ccc2c(c1)O[C@@H](CN(C)C(=O)c1cccc(F)c1)[C@@H](C)CN([C@H](C)CO)S2(=O)=O,-,-,.,.
CCOc1ccccc1C(=O)Nc1cc(Cl)ccc1O,.,-,-,86.0
CCOc1ccccc1C(=O)Nc1cc(OC)ccc1OC,-,-,-,78.8
CCOc1cc(NC(=S)Nc2ccccc2)c(OCC)cc1NC(=O)c1ccc(OC)cc1,.,-,-,88.8
COc1ccccc1C(=O)Nc1cc(Cl)ccc1O,.,-,-,-
CC(C)[C@@H]1C(=O)N[C@H](c2ccccc2)CC=CC[C@@H](C)Oc2ccccc2C(=O)N1C (mixture of isomers),-,.,.,.
C[C@H](CO)N1C[C@H](C)[C@@H](CN(C)S(=O)(=O)c2cccs2)Oc2c(NC(=O)Cn3cnnn3)cccc2C1=O,-,.,.,.
CO[C@@H]1CN(C)C(=O)c2cc(NC(C)=O)ccc2OC[C@H](C)N(C(=O)c2cnccn2)C[C@@H]1C,-,.,.,.
